From US6994868B2, “Compositions useful as inhibitors of ERK” (Vertex Pharmaceuticals Incorporated, priority 2000, dated 2006)

Chains of the proteins cited; added tags and fusions are not shown.
UniProt P28482, whole entry: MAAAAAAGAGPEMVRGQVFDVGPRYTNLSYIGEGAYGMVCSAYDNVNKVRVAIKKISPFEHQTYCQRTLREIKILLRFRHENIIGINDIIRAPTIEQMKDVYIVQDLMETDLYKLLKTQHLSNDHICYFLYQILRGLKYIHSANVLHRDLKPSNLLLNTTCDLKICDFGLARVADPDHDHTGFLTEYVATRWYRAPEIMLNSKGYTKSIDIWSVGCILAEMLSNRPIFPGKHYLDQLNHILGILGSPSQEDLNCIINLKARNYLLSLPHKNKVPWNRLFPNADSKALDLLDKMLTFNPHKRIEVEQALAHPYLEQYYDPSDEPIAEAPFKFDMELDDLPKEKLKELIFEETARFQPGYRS

Molecular target: activated ERK2 (Homo sapiens, UniProt P28482)
Experiment: ERK inhibition assay (spectrophotometric coupled-enzyme assay)
Assay type: biochemical
Details: activated ERK2 10 nM, 65 μM ATP, 200 μM erktide peptide, 30° C., pH 7.5; read-out: ERK2 Inhibitory Activity (Ki class)

## COc1cccc(-c2cn[nH]c2-c2c[nH]c(C(=O)NC(C)C)c2)c1 [II-A-159]
  Ki: 1000 to 5000 nM
